Patent publication US20250388602A1 (Genase Therapeutics B.V., priority 2022, published 2025)

Protein sequences, listed by entry. Tags and fused reporters are not part of them.
UniProt Q02127, whole entry: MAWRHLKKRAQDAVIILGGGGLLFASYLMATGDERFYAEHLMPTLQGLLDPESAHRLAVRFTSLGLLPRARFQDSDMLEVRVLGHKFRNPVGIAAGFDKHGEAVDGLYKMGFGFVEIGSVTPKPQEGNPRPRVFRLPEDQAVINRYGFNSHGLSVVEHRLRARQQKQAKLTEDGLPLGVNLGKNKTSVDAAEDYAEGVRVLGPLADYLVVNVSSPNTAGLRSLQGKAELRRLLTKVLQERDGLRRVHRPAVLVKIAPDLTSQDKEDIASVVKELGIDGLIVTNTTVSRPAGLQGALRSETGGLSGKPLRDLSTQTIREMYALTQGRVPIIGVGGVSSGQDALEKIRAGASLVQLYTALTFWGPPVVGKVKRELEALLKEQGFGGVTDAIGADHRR

Tests used:
recombinant human DHODH = recombinant human DHODH (Homo sapiens (Human), UniProt Q02127); assay: DHODH enzyme assay (Assay A), DCIP absorbance; type: biochemical; conditions: read-out: IC50 DHODH inhibition activity
MOLM-13 cells = assay: MOLM-13 cell viability (Assay B), Cell Titer-Glo; type: cell-based; conditions: read-out: IC50 MOLM13 inhibition activity
Procedure: MOLM-13 cells (an acute myeloid leukemia cell line) were plated in RPMI supplied with 10% FBS and 1% Pen/Strep in 384-well plates at 1,000 cells per well on day 0. On day 1, treatment of the cells with compound (concentration range 10E-5 and 6E-12 M) was initiated in the presence or absence of 100 μM uridine. After 72 hours incubation of the cells with or without test compound, the number of viable cells per well was assessed by Cell Titer-Glo Luminescent Cell Viability Assay (Promega, Madison, WI, USA). […] Each condition was tested in duplicate and the potency of test compounds was determined from two independent experiments.

COc1cccc(-n2ncc3c2COC[C@H]3NC(=O)c2ncc3n2CCCC3)c1Cl
IC50 (recombinant human DHODH): < 10 nM
IC50 (MOLM-13 cells): < 10 nM
